Source: article PMC2943038 (Chemical communications (Cambridge, England), 2010)

By UniProt entry, the sequences of proteins in these tests, tags left out.
UniProt Q9UM07, whole entry: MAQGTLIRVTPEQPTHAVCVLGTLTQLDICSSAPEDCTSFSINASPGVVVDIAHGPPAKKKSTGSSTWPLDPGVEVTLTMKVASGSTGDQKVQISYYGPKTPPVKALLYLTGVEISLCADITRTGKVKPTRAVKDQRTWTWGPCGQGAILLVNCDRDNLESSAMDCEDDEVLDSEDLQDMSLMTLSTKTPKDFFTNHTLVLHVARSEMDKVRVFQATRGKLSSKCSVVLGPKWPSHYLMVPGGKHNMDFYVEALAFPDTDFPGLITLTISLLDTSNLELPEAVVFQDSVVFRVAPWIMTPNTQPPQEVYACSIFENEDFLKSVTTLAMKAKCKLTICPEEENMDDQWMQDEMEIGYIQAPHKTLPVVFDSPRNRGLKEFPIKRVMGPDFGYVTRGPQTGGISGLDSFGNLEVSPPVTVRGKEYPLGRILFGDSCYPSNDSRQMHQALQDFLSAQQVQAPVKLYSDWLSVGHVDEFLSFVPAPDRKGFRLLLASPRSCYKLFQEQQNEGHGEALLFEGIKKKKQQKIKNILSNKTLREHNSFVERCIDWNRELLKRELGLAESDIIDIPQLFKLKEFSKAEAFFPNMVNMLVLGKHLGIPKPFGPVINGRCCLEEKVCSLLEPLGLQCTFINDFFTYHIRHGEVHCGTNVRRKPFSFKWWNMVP
UniProt Q9Y2J8, whole entry: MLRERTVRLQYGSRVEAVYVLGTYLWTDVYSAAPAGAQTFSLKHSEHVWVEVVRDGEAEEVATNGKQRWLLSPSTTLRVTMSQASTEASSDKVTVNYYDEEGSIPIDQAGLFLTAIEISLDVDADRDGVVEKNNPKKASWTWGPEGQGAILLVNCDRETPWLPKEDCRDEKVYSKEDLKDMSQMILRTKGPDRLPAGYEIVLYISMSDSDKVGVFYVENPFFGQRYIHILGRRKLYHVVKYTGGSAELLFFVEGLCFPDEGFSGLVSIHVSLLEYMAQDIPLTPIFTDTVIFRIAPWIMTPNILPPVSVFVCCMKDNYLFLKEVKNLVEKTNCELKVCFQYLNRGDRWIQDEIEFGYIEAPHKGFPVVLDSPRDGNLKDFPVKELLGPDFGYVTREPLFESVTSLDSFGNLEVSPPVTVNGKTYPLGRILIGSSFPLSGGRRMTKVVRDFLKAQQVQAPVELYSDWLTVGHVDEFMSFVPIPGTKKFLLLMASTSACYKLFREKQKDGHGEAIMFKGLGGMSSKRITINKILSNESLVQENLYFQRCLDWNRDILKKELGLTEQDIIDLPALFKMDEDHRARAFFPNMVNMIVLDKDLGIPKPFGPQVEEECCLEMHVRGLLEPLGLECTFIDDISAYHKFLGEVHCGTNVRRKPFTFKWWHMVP

Key:
[1] = target: PAD4 (Homo sapiens, UniProt Q9UM07); assay: PAD4 inhibition/inactivation, residual activity measured with BAEE; type: biochemical
[2] = target: T1, PAD3 (Homo sapiens, UniProt Q9ULW8); conditions: PAD4 over PAD3, relative values of kinact/KI
T1 sequence (Q9ULW8 1-664): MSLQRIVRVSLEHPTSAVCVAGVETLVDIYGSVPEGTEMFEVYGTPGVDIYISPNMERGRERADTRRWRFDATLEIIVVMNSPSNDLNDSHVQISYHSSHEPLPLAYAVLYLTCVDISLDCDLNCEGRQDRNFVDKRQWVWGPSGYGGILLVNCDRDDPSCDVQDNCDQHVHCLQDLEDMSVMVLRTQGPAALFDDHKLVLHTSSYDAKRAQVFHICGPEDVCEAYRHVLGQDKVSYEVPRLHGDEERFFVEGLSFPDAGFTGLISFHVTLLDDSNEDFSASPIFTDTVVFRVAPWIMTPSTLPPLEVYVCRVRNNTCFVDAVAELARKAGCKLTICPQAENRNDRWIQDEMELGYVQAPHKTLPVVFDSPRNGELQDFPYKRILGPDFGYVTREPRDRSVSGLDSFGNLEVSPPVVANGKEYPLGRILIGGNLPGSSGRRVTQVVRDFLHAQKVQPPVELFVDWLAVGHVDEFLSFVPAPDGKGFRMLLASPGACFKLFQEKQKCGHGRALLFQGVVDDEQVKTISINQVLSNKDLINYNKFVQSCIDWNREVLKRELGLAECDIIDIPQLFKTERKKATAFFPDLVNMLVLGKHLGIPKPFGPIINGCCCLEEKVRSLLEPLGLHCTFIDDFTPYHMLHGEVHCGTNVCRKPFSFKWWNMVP

[3] = use as a cancer therapy; cited from earlier work
[4] = target: PAD2 (Homo sapiens, UniProt Q9Y2J8); assay: biochemical
[5] = target: T1, PAD3; assay: biochemical
[6] = target: T2, PAD1 (Homo sapiens, UniProt Q9ULC6); assay: PAD1 inhibition/inactivation, residual activity measured with BAEE
T2 sequence (Q9ULC6 1-663): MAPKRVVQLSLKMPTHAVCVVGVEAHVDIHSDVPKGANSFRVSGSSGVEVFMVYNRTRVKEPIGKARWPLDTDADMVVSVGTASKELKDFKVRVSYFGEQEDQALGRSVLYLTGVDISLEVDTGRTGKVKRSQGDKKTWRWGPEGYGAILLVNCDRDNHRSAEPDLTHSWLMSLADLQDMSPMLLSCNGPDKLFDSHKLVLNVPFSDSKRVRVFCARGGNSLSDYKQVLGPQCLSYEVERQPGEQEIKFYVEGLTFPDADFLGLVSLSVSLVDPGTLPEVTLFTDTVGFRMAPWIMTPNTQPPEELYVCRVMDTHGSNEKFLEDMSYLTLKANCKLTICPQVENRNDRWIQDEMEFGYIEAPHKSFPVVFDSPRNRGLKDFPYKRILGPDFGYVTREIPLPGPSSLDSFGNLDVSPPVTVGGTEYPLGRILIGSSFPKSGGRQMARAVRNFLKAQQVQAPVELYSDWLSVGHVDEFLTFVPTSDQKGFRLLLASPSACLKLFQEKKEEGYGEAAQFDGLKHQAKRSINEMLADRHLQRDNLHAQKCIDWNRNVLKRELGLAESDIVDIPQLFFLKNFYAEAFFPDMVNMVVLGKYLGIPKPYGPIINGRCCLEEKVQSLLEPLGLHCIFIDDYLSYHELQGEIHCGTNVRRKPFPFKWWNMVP

COC1=C(N)C(=O)c2nc(-c3nc(C(=O)O)c(C)c(-c4ccc(OC)c(OC)c4O)c3N)ccc2C1=O [NIH6, streptonigrin]
kinact [1]: 0.0617 s⁻¹ | kinact/KI [1]: 7330 M⁻¹ s⁻¹ | selectivity for PADs 3 and 4 over PADs 1 and 2 ([1]; based on IC50 values): > 10 fold | kinact/KI values for PADs 1, 2 and 3 fold lower than for PAD4 ([1]; based on kinact/KI): at least 35 fold | Fold selectivity [2]: 126 fold | side effects / toxicity [3]: nausea, diarrhea, and hair loss; also recorded: bone marrow depression and high toxicity | kinact [4]: 0.00333 s⁻¹ | kinact/KI [4]: 200 M⁻¹ s⁻¹ | kinact [5]: 0.00333 s⁻¹ | kinact/KI [5]: 58.3 M⁻¹ s⁻¹ | kinact [6]: 0.000667 s⁻¹ | kinact/KI [6]: 61.7 M⁻¹ s⁻¹ | Fold selectivity ([6]; PAD4 over PAD1, relative values of kinact/KI): 119 fold

Entries after “also recorded” stand apart in the source; their conditions may differ.
